## scFv variants of Ab-91 (heavy chain) against a SARS-CoV-2 spike peptide

All variants were tested on one target, the spike HR2 peptide PDVDLGDISGINAS (SARS-CoV-2).

The variants keep the light chain, the linker and the frameworks of Ab-91 (scFv order VL, a (GGGGS)3 linker, VH).
VL: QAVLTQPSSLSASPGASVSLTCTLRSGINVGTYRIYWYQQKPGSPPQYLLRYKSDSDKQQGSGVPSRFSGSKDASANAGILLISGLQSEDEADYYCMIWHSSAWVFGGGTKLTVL
VH: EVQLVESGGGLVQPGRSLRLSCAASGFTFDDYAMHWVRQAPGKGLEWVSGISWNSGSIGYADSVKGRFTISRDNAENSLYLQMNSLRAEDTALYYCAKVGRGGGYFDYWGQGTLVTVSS

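The starting antibody came from a phage panning campaign against this peptide. The library (AAYL51) carries one to three amino acid substitutions per variant, with no insertions or deletions. AlphaSeq pools MATa yeast showing the antibodies with MATalpha yeast showing the peptide. After mating in shaken culture at 30 °C for 16 h, diploids were selected and their barcode pairs sequenced. Read counts were normalised to the haploid input and turned into Kd by a linear fit to BCL2-family pairs of known affinity, for each replicate. There are three technical replicates.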

The parent's heavy chain CDRs are GFTFDDYAMH, GISWNSGSIGYADSVK, VGRGGGYFDY; each variant's own CDRs replace them letter for letter.
This list gathers variants with a substitution at A33 (VH, numbered from residue 1).
Kd is apparent (estimated from mating counts) and averaged on the log scale over replicates with a signal. Smaller is tighter.
Where no diploid with the target was found in any replicate, the entry reads "nd": below detection, most likely a poor binder, though not proof of it.
Entries are sorted by rising average, undetected variants last.

The variant IFTFDDYIMH / GISWNSGSCGYADSVK / VGRGGGYFDY gave 180 nM (3 of 3 replicates). With GFTFDDYPMH / GISNNSGSIGYADSVK / VGRGGGYFDW the result was 280 nM (1 of 3 replicates). The variant GFTFDDYIMH / GISWNSGSIGYADSVK / PGRGQGYFDY showed 3.0 µM (1 of 3 replicates). With GFTFDDYNMH / GIVWNSGSIGYADSVK / VGRGGGYRDY the result was 3.2 µM (1 of 3 replicates). With GFTFDDYCMH / GISWNSGSIGYADAVK / VERGGGYFDY the result was 4.0 µM (1 of 3 replicates). With GFTFDDYLMH / GISWNSGSIGYADSVK / VGRPYGYFDY the result was 8.1 µM (1 of 3 replicates). With GFTFIDYSMM / GISWNSGSIGYADSVK / VGRGGGYFDY the result was 14 µM (1 of 3 replicates). The variant GFTFDDYFCH / GISWNSGSIGYADYVK / VGRGGGYFDY showed 14 µM (3 of 3 replicates). With GFTGDDYSMH / GISWNSGSIGYADSVK / KGRGGGYFDY the result was 24 µM (2 of 3 replicates).

For GFTYDDYWMH / GISWMSGSIGYADSVK / VGRGGGYFDY, the assay gave 29 µM (1 of 3 replicates). The variant GFTFDDYIMH / GISWNSGSIGTADDVK / VGRGGGYFDY showed 35 µM (2 of 3 replicates). The variant GFTFDDYKEH / GISWNSGSIGYADSVK / VGRGGGYFSY gave 37 µM (2 of 3 replicates). For GFTFDDYYMH / GISWNSGSITYADSVK / VGRGGGYFDY, the assay gave 41 µM (2 of 3 replicates). With GFTFDDYPMH / GISWNSGSIGYATSVK / VGRGGGYSDY the result was 52 µM (3 of 3 replicates). The variant GFTFDDYTMH / GIVWNPGSIGYADSVK / VGRGGGYFDY gave 86 µM (1 of 3 replicates). For GFTFDDKCMH / VISWNSGSIGYADSVK / VGRGGGYFDY, the assay gave 110 µM (2 of 3 replicates). With GFTFDDYHMH / GTSWNSNSIGYADSVK / VGRGGGYFDY the result was 120 µM (3 of 3 replicates). The variant GFTFDDYIMH / GISWNSGSIGYADAVK / VGRGGAYFDY showed 150 µM (1 of 3 replicates).

The variant GFTFDDYTMH / GIWWNSGSIYYADSVK / VGRGGGYFDY gave 160 µM (1 of 3 replicates). For GFTFGDYFMH / GQSWNSGSIGYADSVK / VGRGGGYFDY, the assay gave 230 µM (2 of 3 replicates). With GFTFDDYDMH / GISWNSGSIGYAQSVK / VGRGGGYFHY the result was 260 µM (1 of 3 replicates). With GFLFDDYLMH / GISWNSGSIGYADSVK / VGRTGGYFDY the result was 390 µM (2 of 3 replicates). For GFTFCDYSMH / GISWNSGSIGYADSVK / VGRGIGYFDY, the assay gave 460 µM (1 of 3 replicates). With GFTFDDPIMH / GISWNSGSIGRADSVK / VGRGGGYFDY the result was 1.2 mM (2 of 3 replicates). For GFTFKDYCMH / GISWNSGSQGYADSVK / VGRGGGYFDY, the assay gave nd (0 of 3 replicates). With GFTFDDYWMH / GISWNSGSIGYADSVK / VGRGGGYFDY the result was nd (0 of 3 replicates). With GFTFDDYSMH / GISWNSGSIGYATSVK / VGRGGGYFKY the result was nd (0 of 3 replicates).

The variant GFTFDDYSMH / GISWNSGSIPYADSVK / VGRGYGYFDY showed nd (0 of 3 replicates). With GFTFDDYQMH / GISWNFGSIGYADSVK / VGRGGGYMDY the result was nd (0 of 3 replicates). For GFTFDDYEMH / GISWNSGSIGYADFVF / VGRGGGYFDY, the assay gave nd (0 of 3 replicates). For GFTFDDYCMH / GISWNSGSLGYAASVK / VGRGGGYFDY, the assay gave nd (0 of 3 replicates). For GFTFDDYFMV / GISWNSGSIGYADSVK / VGRGGGYFDW, the assay gave nd (0 of 3 replicates). The variant GFTFDDYDMH / GISWNSGSIGCADSVK / VGRGGGYFDV gave nd (0 of 3 replicates). For GFTFDDYEMH / GISWNSGSIGYADSVK / VGGGGGYRDY, the assay gave nd (0 of 3 replicates). The variant GFGFDDYWMH / GISWNSGSIGYADTVK / VGRGGGYFDY gave nd (0 of 3 replicates). The variant GFTFHDYQMW / GISWNSGSIGYADSVK / VGRGGGYFDY gave nd (0 of 3 replicates).

The variant GFTFDDYGMH / GISRNSGSIGYADSNK / VGRGGGYFDY gave nd (0 of 3 replicates). For GFTFDDYWFH / GISWNSGVIGYADSVK / VGRGGGYFDY, the assay gave nd (0 of 3 replicates). For GFTFDDYMMT / GISWNSGSIGYADSVK / VGDGGGYFDY, the assay gave nd (0 of 3 replicates).

For reference, 4 entries of the list once more:

For GFTFDDYCMH / GISWNSGSIGYADAVK / VERGGGYFDY, the assay gave 4.0 µM (1 of 3 replicates).
For GFTFHDYQMW / GISWNSGSIGYADSVK / VGRGGGYFDY, the assay gave nd (0 of 3 replicates).
For GFTFDDYGMH / GISRNSGSIGYADSNK / VGRGGGYFDY, the assay gave nd (0 of 3 replicates).
For GFTFDDYQMH / GISWNFGSIGYADSVK / VGRGGGYMDY, the assay gave nd (0 of 3 replicates).

Nonspecific signal, from three strains lacking the peptide, appeared in 21% of pairings of library AAYL51, centred on 34 µM (5% of these signals below 1.8 µM); values are not corrected for it.

Source: Engelhart et al. 2022 (doi:10.1038/s41597-022-01779-4), MIT Lincoln Laboratory and A-Alpha Bio; data file from the FLAb repository.